The text below walks through data of patent US20190054041A1, “USE OF NOOTKATONE” (INSTITUTE OF TROPICAL BIOSCIENCE AND BIOTECHOLOGY CHINESE …, priority 2016, published 2019).

The subject of the data set is ICR mice. The following applies: intragastric once a day for 14 days, nootkatone 1-2 mg/Kg, Prozac 20 mg/Kg.

In the case of `CNCCC(Oc1ccc(C(F)(F)F)cc1)c1ccccc1` (stereo not shown) [Prozac, fluoxetine, reference compound], the “Toxicity judged from weight and fur appearance of mice” value is on record as “neither nootkatone nor the positive drug Prozac has toxicity”.
